Experiments:
[1] = system: Murine DMD exon 23; experiment: Exon 23 skipping (RT-PCR) in muscle tissue of MDX mice
[2] = system: creatine kinase; experiment: Serum creatine kinase level in MDX mice; details: once per week for four weeks, serum one week after the last injection
[3] = system: dystrophin; experiment: Dystrophin protein expression (Western blot, immunohistochemistry) in MDX mice; details: repeated dosing study, quantification of dystrophin protein
[4] = system: Human CD33 exon 2; experiment: CD33 exon 2 skipping (RT-PCR) in differentiated THP1 cells; format: cell-based; details: differentiated THP1 cells treated for 1 day, then full growth medium

## 5′-GGCCAAACCTCGGCTTACCTGAAAT-3′-C3NH-PEG4-BCN+Lys(N3)-miniPEG-NLS-ss-bA-bA-CPP12 (all PMO monomers)
[1]
  performance of CPP12 with Nuclear Localization Sequence versus CPP12 alone: outperformed CPP12 alone significantly

## 5′-GGCCAAACCTCGGCTTACCTGAAAT-3′ (all PMO monomers)
[2]
  serum creatine kinase level: did not significantly reduce the elevated serum CK level

## 5′-GGCCAAACCTCGGCTTACCTGAAAT-3′-C3NH-PEG4-BCN+Ac-NLS-Lys(CPP12)-PEG12-K(N3) (all PMO monomers)
[1]
  performance of CPP12 with Nuclear Localization Sequence versus CPP12 alone: outperformed CPP12 alone significantly

## 5′-GGCCAAACCTCGGCTTACCTGAAAT-3′-click-K-PEG12-Lys(CPP12)-NLS-Ac (all PMO monomers)
[3]
  cells positive for dystrophin in cardiac tissue: 40%

## 5′-GTAACTGTATTTGGTACTTCC-3′ + CPP12-PEG12-K(CPP12)-PEG12-TFP (all PMO monomers)
[4]
  period of sustained CD33 exon 2 skipping: > 8 days
